Assay: in vitro
Details: human, HepG2 cells

## COc1cc(/C=C2/NC(=O)N(Cc3ccc(C)cc3)C2=O)ccc1OCc1cccc(C(=O)O)c1
  viability at 48 h, 200 µM: > 80%
